By GI50 is commonly meant the concentration that inhibits growth by half. The low end stands for more potent growth inhibition, the high end for less potent growth inhibition.

Protein sequences, listed by entry. Tags and fused reporters are not part of them.
UniProt P02554, whole entry, looked up: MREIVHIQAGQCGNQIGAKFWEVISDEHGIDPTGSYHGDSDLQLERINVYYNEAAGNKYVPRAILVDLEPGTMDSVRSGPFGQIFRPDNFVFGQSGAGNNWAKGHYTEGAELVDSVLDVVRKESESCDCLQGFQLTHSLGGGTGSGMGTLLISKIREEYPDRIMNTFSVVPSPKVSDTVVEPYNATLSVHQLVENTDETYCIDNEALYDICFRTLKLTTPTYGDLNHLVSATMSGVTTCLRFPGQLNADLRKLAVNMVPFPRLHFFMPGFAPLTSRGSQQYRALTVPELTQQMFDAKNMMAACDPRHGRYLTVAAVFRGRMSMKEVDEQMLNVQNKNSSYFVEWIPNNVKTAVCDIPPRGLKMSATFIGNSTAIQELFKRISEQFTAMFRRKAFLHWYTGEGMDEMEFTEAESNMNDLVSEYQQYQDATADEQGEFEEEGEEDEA
UniProt P02550, whole entry, looked up: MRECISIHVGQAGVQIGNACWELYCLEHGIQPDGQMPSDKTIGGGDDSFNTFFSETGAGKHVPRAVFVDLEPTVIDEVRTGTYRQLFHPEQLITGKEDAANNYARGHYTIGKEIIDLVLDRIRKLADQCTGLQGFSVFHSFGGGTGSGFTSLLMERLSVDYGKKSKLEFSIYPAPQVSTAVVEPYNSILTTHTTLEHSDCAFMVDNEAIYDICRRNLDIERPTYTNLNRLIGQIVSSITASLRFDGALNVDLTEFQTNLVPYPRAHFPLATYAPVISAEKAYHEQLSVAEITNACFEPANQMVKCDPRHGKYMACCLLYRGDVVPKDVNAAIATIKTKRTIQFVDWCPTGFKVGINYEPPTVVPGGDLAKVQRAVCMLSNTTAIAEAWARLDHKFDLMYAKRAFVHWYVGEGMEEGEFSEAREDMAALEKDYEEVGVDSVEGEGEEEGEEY

For one data set, the target named is Tubulin (Sus scrofa) (UniProt P02554+P02550). The note with it: 10 uM.
The next data set has as its system NCI-H522. Nature of the data set: cells. The note with it: Homo sapiens.
The next data set is described as follows: in vivo. The note with it: BALBc/J, mouse.

Molecules are shown by their SMILES. Activity calls are given as the source filed them. The rule behind the calls is not given here.

In the case of `COc1ccc(N(C)c2nc(C)nc3oc(C)cc23)cc1` [listing 1 of 2 here], at Tubulin (Sus scrofa), the inhibition entry is “Active”.
On to `COc1ccc(N(C)c2nc(C)nc3oc(C)cc23)cc1` [listing 2 of 2 here], for which the GI50 in the data set on NCI-H522 is less than 1 nM.
On to `CCN(CC)CCNC(=O)c1c(C)[nH]c(/C=C2\C(=O)Nc3ccc(F)cc32)c1C` [SUNITINIB], for which the MTD in the data set “in vivo” is 30 mg/kg.

Source of the values: ChEMBL document CHEMBL3297731, “The design and discovery of water soluble 4-substituted-2,6-dimethylfuro[2,3-d]pyrimidines as multitargeted receptor tyrosine kinase inhibitors and microtubule targeting antitumor agents” (Bioorg Med Chem, 2014).
